Data taken from patent US6372740B1, “2-aryl-8-oxodihydropurine derivative, process for the producing the same, medicinal compositions containing the same, and intermediates thereof” (Dainippon Pharmaceutical Co., Ltd., priority 1997, dated 2002).

The chains behind the UniProt entries cited, without tags or fusion partners.
UniProt P16257, whole entry: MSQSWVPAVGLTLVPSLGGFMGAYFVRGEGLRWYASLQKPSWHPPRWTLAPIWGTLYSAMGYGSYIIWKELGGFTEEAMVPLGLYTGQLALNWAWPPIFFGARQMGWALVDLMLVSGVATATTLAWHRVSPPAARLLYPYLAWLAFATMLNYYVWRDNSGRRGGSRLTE

Target: BZω3 receptor (Rattus norvegicus, UniProt P16257)
Assay: BZω3 (peripheral) benzodiazepine receptor binding assay, [3H] 4'-chlorodiazepam (Ro 5-4864)
Conditions: read-out: ω3 IC50; rat kidney membrane, [3H] Ro 5-4864 0.5 nM, 150 minutes at 0° C.; tested form: 1/4 hydrate

IC50: 1.1 nM
SMILES: CCn1c(=O)n(CC(=O)N(C)c2ccccc2)c2nc(-c3ccccc3)ncc21
